Measured values taken from US11786548B2, “Trace element compositions, methods of making and use” (priority 2020, dated 2023).

Test: Stability study of injectable trace element composition in parenteral nutrition admixtures (assay test for zinc, copper, selenium, manganese)
Type: physicochemical
From the text: In order to establish stability data for parenteral nutrition admixed with the injectable compositions of trace elements, we conducted a stability study of injectable trace element composition (trace elements injectable composition, USP) in parenteral nutrition admixtures (assay test); a pH study of parenteral nutrition (PN) admixtures upon addition of injectable trace element composition (trace elements injectable composition, USP); a compatibility study of injectable trace element composition (trace elements injectable composition, USP) in parenteral nutrition admixtures; and a reduced inoculation antimicrobial effectiveness study for injectable trace element composition (trace elements injectable composition, USP) in parenteral nutrition admixtures. […]

With O.O.O.O.O.O=S(=O)([O-])[O-].[Cu+2] [Copper, cupric sulfate pentahydrate] the “Assay Day 0” value was 101.8%, the “Assay Day 7” value was 101.5% and the “Assay Day 10” value was 101.0%.
